In PubChem BioAssay AID652025 (National Center for Advancing Translational Sciences (NCATS), 2013):
The list shows a part of the results, in another mix than the full data. Some of these compounds have results that are not shown, active ones among them. Calls of active or inactive are those of the source. Rule as the data show it: active = activation above about 50%; inconclusive = mostly about 30% to 49%; inactive = weaker than that.

Test: qHTS of IL-2 Activators; also: 0% is about no effect
Details: IL-2 activation reporter assay, cell-based qHTS; hits give high values; in transgenic mouse T cells; stimulated with anti-CD3/CD4/CD28 beads
From the text: The adaptive immune response against any infectious agent begins with the activation of an antigen specific T cell. This relatively rare and inert ("naive") T cell undergoes a massive proliferative expansion and differentiation process to generate sufficient number of potent pathogen-specific effector T cells. The effector T cells fight the infection by making cytokines and helping other cells to become fully armed as well. If any naive T cell has antigen receptors (TCRs) that can be activated by self peptides, then a variety of regulatory mechanisms kick in to prevent this cell from performing to its full potential. These processes collectively constitute the phenomenon of immunological tolerance and their failure leads to autoimmunity. One arm of tolerance involves generation of biochemical negative feedback downstream of the TCR (tuning). This is especially relevant to self antigens present in the body over long periods of time (chronic), which form the bulk of our proteome. The negative feedback serves to tune the TCR signaling, such that the ambient antigenic stimulation is nullified intracellularly. Unfortunately, this critical machinery serves as a target for chronic viral, bacterial and parasitic infections (as well as tumors), which can evade a robust immune response, simply by allowing T cells to tune down their signaling to pathogen or malignancy derived antigens. As such, disrupting the tuning in such cases would allow the tolerant T cell to function again and deliver a robust effector response.
If a therapeutic can restore responsiveness to the tuned down T cell, even for a short time, they could combat the pathogen without any additional immunization. To that end, we have developed a sensitive HTS T cell based assay based on IL-2. This assay will be screened against the Molecular Libraries Small Molecule Repository (MLSMR) to find small molecules that could elicit this response.
NIH Chemical Genomics Center [NCGC]
NIH Molecular Libraries Probe Centers Network [MLPCN]
Assay Submitter (PI): Ron Schwartz, NIAID
4 microL (750 cells/well) of unstimulated transgenic mouse T cells (columns 1-3,5-48) are dispensed into Aurora LoBase, black clear-bottom 1536-well assay plates; column 4 receives an identical concentration of transgenic memory T cells as a non-tolerant control. Compounds are then transferred via Kalypsys pin tool equipped with 1536-pin array (10 nL slotted pins, V&P Scientific, San Diego, CA). Following addition of compound and a 60 minute incubation, 1 microL of bead stimulation solution ((0.04 micron Fluospheres (Life technologies, CA) coated with 10ug/ml each anti-CD3 and anti-CD4 (clones 2C11 and GK1.5, BD Biosciences, CA) and mixed with 1ug/ml anti-CD28 (clone PV-1, BD biosciences, CA)). columns 2-48) is added to stimulate the IL-2 response pathway; media is instead added to column 1 as an unstimulated control, while PMA/ionomycin (Sigma Aldrich, MO) is added to column 3 as a control for IL-2 tolerance bypass. The plates are then incubated at 37 degrees C for 18 hours. EGFP and DsRed signal are then detected using an Acumen eX3 Explorer fluorescent plate cytometer. All cells are dispensed in cell media containing EHAA (Quality Biologicals, MD), RPMI (Quality Biologicals, MD), Glutamine (Life Technologies, CA), Penicillin/Streptomycin (Quality Biologicals, MD), 2-ME (Sigma Aldrich, MO) and 10% FBS (Gemini Bioproducts, CA) .
For Cc1ccc(C(=O)NCC2(N3CCCCC3)CCCCC2)cc1, the activation was inactive: 2.66%. In the case of CCN(CC)CC(C)C(C)OC(=O)C(O)(c1ccccc1)c1ccccc1 (stereo unspecified), the activation is reported as inactive: 1.14%. For COc1cc(SC)ccc1C(=O)NCC1(N(C)C)CCCCC1, the activation was inactive: -0.688%. With CC(C)N1C(=O)CC2(CCN(CCOC(=O)C(O)(c3ccccc3)c3ccccc3)CC2)C1=O the activation was inactive: -0.478%. With CN1[C@@H]2CC[C@H]1CC(OC(=O)C(O)(c1ccccc1)c1ccccc1)C2 (stereo partly specified) the activation was inactive: 1.14%. In the case of O=C(NCC1(N2CCCCC2)CCCCC1)c1cc([N+](=O)[O-])ccc1Cl, the activation is reported as inactive: 0.967%. In the case of COc1ccc(C(=O)NCC2(N(C)C)CCCCC2)cc1, the activation is reported as inactive: -2.81%. With Cc1cc(C(=O)NCC2(N3CCCCC3)CCCCC2)ccc1[N+](=O)[O-] the activation was inactive: 1.12%. With CCN1CCCC(OC(=O)C2(O)c3ccccc3C=Cc3ccccc32)C1 (stereo unspecified) the activation was inactive: -0.57%. For O=C(NCC1(N2CCCCC2)CCCCC1)c1cccc(Br)c1, the activation was inactive: 1.68%. In the case of C=CCN1CCN(CCOC(=O)C(O)(c2ccccc2)c2ccccc2)CC1, the activation is reported as inactive: -1.27%. For O=C(NCC1(N2CCCCC2)CCCCC1)c1cc(F)c(F)cc1Cl, the activation was inactive: 3.3%. For Cc1ccccc1C(=O)NCC1(N2CCCCC2)CCCCC1, the activation was inactive: -1.48%. In the case of CN(C)C1CCCC1OC(=O)C(O)(c1ccccc1)c1ccccc1 (stereo unspecified), the activation is reported as inactive: 3.78%. In the case of CN(C)c1ccc(C(=O)NCC2(N(C)C)CCCCC2)cc1, the activation is reported as inactive: 0.822%. For O=C(NCC1(N2CCCCC2)CCCCC1)c1cccc(Cl)c1, the activation was inactive: -0.198%. For COc1cccc(C(=O)NCC2(N3CCCCC3)CCCCC2)c1, the activation was inactive: 2.44%. With COc1ccc(Cl)cc1C(=O)NCC1(N(C)C)CCCCC1 the activation was inactive: -3.04%. With COc1cc(C(=O)NCC2(N(C)C)CCCCC2)c([N+](=O)[O-])cc1OC the activation was inactive: 0.526%. For CN(C)C1(CNC(=O)c2ccc(Br)cc2)CCCCC1, the activation was inactive: -0.31%. With CC(C)Oc1ccc(C(=O)NCC2(N(C)C)CCCCC2)cc1 the activation was inactive: 2.14%. For O=C(OCCN1CCCC1)C(O)(c1ccccc1)c1ccccc1, the activation was inactive: 1.08%. In the case of CN(C)c1cccc(C(=O)NCC2(N(C)C)CCCCC2)c1, the activation is reported as inactive: 0.167%. With C=C(C)C#CC(O)(C(=O)OC1CCN(C)CC1)c1ccccc1 (stereo unspecified) the activation was inactive: -3.86%. For COc1ccc(Br)c(C(=O)NCC2(N3CCCCC3)CCCCC2)c1, the activation was inactive: 1.16%. In the case of O=C(OC1CN2CCC1CC2)C(CO)(c1ccccc1)c1ccccc1 (stereo unspecified), the activation is reported as inactive: 0.777%.
